From BindingDB's records for doi:10.1016/S1074-5521(01)00084-9 (Axys Pharmaceuticals, 2001)

By UniProt entry, the sequences of proteins in these tests, tags left out. Residues count along the entry.
UniProt P00742, 41-179 limits assumed: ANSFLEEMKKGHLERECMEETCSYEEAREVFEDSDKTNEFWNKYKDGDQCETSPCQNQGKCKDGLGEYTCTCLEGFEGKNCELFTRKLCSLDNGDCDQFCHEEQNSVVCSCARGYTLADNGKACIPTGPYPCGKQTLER
UniProt P00742, 235-488 limits assumed: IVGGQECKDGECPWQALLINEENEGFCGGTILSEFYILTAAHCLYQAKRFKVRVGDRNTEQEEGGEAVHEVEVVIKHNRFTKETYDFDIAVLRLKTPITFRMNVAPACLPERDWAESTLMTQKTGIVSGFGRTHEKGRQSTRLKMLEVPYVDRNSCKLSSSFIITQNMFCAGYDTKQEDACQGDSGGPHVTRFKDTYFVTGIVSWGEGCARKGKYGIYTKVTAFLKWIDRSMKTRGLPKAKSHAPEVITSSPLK

Tests used:
Assay in all cases: Enzyme Assay and Determination of the Inhibition Constants
Serine protease 1 = target: T1, Serine protease 1 (Bos taurus, UniProt P00760)
T1 sequence (P00760 whole entry): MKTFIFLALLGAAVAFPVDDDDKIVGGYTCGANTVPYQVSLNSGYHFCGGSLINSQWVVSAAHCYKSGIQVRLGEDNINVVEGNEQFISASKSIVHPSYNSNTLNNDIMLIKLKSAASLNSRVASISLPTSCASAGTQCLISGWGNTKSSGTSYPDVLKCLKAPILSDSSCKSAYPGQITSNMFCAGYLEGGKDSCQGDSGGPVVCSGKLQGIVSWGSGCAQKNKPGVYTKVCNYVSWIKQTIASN

[1] = target: Urokinase-type plasminogen activator (Homo sapiens, UniProt P00749); details: pH 7.4; 22 °C
Coagulation factor X = Coagulation factor X (Homo sapiens, UniProt P00742)

Ki (Coagulation factor X) [nM]	SMILES	Ki (Serine protease 1) [nM]	Ki [1] [nM]
	CC(C)COc1cccc(-c2nc3cc(F)c(C(=N)N)cc3[nH]2)c1O [CA-10]	11000	110
430	N=C(N)c1ccc2nc(-c3cccc(-c4ccccc4)c3O)[nH]c2c1 [2-(2-hydroxy-3-phenylphenyl)-1H-1,3-benzodiazole-5-carboximidamide]		
	N=C(N)c1ccc(NC(=O)c2ccccc2O)cc1 [N-(4-CARBAMIMIDOYL-PHENYL)-2-HYDROXY-BENZAMIDE]		3800
